Measurements: patent US20210147508A1 (ACCELERON PHARMA, published 2021)
pKd: −log10 of the molar value. Like-named read-outs stand apart in the source and are kept apart here.

By UniProt entry, the sequences of proteins in these tests, tags left out. Residues count along the entry.
UniProt P01137, 279-390 limits assumed: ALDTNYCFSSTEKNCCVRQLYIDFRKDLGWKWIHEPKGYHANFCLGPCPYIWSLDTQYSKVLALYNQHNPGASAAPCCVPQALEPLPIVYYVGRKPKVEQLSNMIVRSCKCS

How the values were obtained:
TGFβ1 (human) [1] = molecular target: TGFβ1 (human) (UniProt P01137); assay: cell-based or functional assay
TGFβ1 (human) [2] = molecular target: TGFβ1 (human) (UniProt P01137); assay: SPR (Biacore), anti-Fc capture
TGFβ1 (human) [3] = molecular target: TGFβ1 (human) (UniProt P01137); assay: SPR (Biacore), anti-Fc capture; remark: listed apart in the source

- IC50 (pM), inhibition of TGFβ1 (640 pg/mL), CAGA12-luciferase reporter in A549 cells (TGFβ1 (human) [1]): 90 pM
- pKd (TGFβ1 (human) [2]): 10.60
- pKd (TGFβ1 (human) [3]): 10.70
Substance: TGFβRIISHORT-Fc homodimer (from UniProt P37173 23-166) (Fc fusion)
